# KDM4E inh = JMJD2E (human) inhibition | JMJD2E catalytic domain, FDH-coupled NADH fluorescence (FDH is formaldehyde dehydrogenase) | Potency, µM (titrated, usually from 57.1 µM), most hits filed as inhibitors | hit rate 1.6% among 230,000 | AID 2147; active = well fitted inhibition curve with a large enough effect, not every such curve was filed as active; inconclusive = small, poorly fitted or top-dose-only effect, or another doubt; inactive = no such curve, though single readings can be large or run the other way; also: nearly all actives have a fitted effect of over 50% in size
# miR-21 reporter = miR-21 reporter, rising signal; HeLa miR-21 FLuc reporter, luciferase, 48 h; Potency, µM (highest dose often 38.3 µM); 340,000 tested, under 10 active; AID 2288; active = well fitted rising curve with a large enough effect; inconclusive = small, poorly fitted or top-dose-only effect; inactive = no such curve, though single readings can be large or run the other way;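 further: miR-21 action dims this reporter so a rising signal means less miR-21 action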
#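 Compounds were titrated across several concentrations (up to approximately 40 uM) and incubated 48 hours with HeLa miR-21-FLuc reporter cells (miR-21 target sequence downstream of FLuc, endogenous miR-21). Readout was firefly luciferase luminescence after lytic detection reagent.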
# LMNA splice mod = modulators of lamin A splicing; HeLa LMNA splicing GFP/RFP minigene ratio, 48 h; Potency, µM (doses to about 46.1 µM), hits mostly inhibitors; hit rate 0.01% among 200,000; active = well fitted inhibition curve with a large enough effect in the signal ratio, with a control signal flat, not every such curve was filed as active; inconclusive = small, poorly fitted or top-dose-only effect, or effect the other way, or a change in a side signal; the % refers to the signal ratio
#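 S3 HeLa cells stably expressing lamin A-EGFP splicing minigene plus DsRed2, 600 cells/well, 48 h compound exposure at 37C. Laser-scanning cytometry; analysed as GFP (500-530 nm)/RFP (575-640 nm) total intensity ratio; 0.5% DMSO vehicle.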
# ALDH1A1 block = inhibitors of human aldehyde dehydrogenase 1A1. Potency, µM (highest dose often 75.3 µM), most hits filed as inhibitors. P00352. AID 1030. Purified ALDH1A1, NADH fluorescence, propionaldehyde substrate. hit rate 7.3% among 220,000; active = well fitted inhibition curve with a large enough effect, not every such curve was filed as active; inconclusive = small, poorly fitted or top-dose-only effect, or another doubt; inactive = no such curve, though single readings can be large or run the other way
# G9a inh = inhibitors of human histone lysine methyltransferase G9a; Q96KQ7; G9a H3K9 monomethylation, AlphaScreen, 2 h; Potency, µM (series often up to 102 µM), usual class: inhibitors; hit rate 8.8% among 350,000; also: nearly all actives have a fitted effect of over 75% in size
#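 Signal arises when biotinylated H3K9 peptide, once monomethylated, bridges streptavidin donor and antibody-captured acceptor beads. Enzyme at 20 nM was preincubated 15 min with test compounds; peptide 500 nM and SAM 20 uM then reacted for 2 h.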
# Sfp PPTase inh = Sfp phosphopantetheinyl transferase inhibition; Q9F4F7; Biochemical Sfp PPTase activity, qHTS; Potency, µM, actives largely listed as inhibitors; hit rate 3.5% among 310,000; AID 1490;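 also: the enzyme is Sfp with the accession as filed and its product quenches rhodamine fluorescence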
#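 Reaction rates are the 30-min fluorescence difference (ex 525, em 598 nm) in wells containing 15 nM Sfp, 5 uM rhodamine-CoA and 12.5 uM BHQ-2-YbbR at pH 7.6 with 10 mM MgCl2.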
# Hits are given with their value; n = inactive; u = inconclusive; x = not tested or not shown; [ ] = dose if it differs, or a comment. Rows were chosen to be rich in hits. Some 13% of all compounds tested hit in one or more screens of this group. Unless noted, calls follow the shape of the dose curve; as a rule, active = well fitted curve in the direction sought with a large enough effect; inconclusive = small, poorly fitted or top-dose-only effect, or another doubt; inactive = no such curve, though single readings can be large; an effect the other way counts as inactive or inconclusive.
SMILES,KDM4E inh,miR-21 reporter,LMNA splice mod,ALDH1A1 block,G9a inh,Sfp PPTase inh
O=C(COC(=O)/C=C/c1ccc(OC(F)F)cc1)Nc1ccc(S(=O)(=O)N2CCCC2)cc1,n,n,n,n,n,n
CN1CCN(c2ccc(S(=O)(=O)N3CCCCC3)cc2NC(=O)/C=C/c2ccc(OC(F)F)cc2)CC1,x,x,x,x,45µM,x
CCN1CCN(c2ccc(S(=O)(=O)N3CCCCC3)cc2NC(=O)/C=C/c2ccc(OC(F)F)cc2)CC1,x,x,x,x,14µM,x
COc1cccc(Cn2nnc(C(=O)NCc3ccc(Cl)cc3Cl)c2N)c1,x,n,x,x,n,x
CCNC(=O)[C@H](C)/C=C/C(NC(=O)OCc1ccccc1)c1ccc(C(=O)OC)cc1 (stereo partly drawn),n,x,x,n,x,n
Cc1ccc(NC(=S)N(CCN2CCCCC2)Cc2ccco2)cc1Cl,n,n,x,n,50µM,n
Cc1cc(NC(=S)N(CCCN2CCN(C)CC2)Cc2ccco2)ccc1Cl,n,n,u,n,32µM,n
O=C(Nc1ccc(C(=O)O)cc1)/C(=C\c1cccc([N+](=O)[O-])c1)NC(=O)c1ccc(Br)o1,n,n,x,n,n,n
Cc1cccc(NC(=O)c2ccc3snnc3c2)c1C,x,n,x,x,n,x
Cc1cccc(N2C(=O)/C(=C\c3ccc(C(=O)O)cc3)c3ccccc3C2=O)c1,n,n,x,u,45µM,n
Cc1cc(F)ccc1NCC(=O)Nc1ccccc1Br,n,n,n,28µM,50µM,u
Cc1ccc(F)cc1NCC(=O)Nc1ccc(Cl)cc1F,n,n,n,n,n,n
CC1CCN(C2CCN(S(=O)(=O)c3ccc(C(F)(F)F)cc3)CC2)CC1,x,n,x,x,n,n
COCc1nnc(NC(=O)CS(=O)(=O)c2ccc(C)cc2)s1,x,n,x,x,50µM,n
CC(C)(C)c1csc(NC(=O)c2cccs2)n1,n,n,u,u,u,n
Cc1ccc(S(=O)(=O)CCc2nnc(NC(=O)CCl)s2)cc1C,n,n,u,1µM,79µM,n
Cc1ccc(S(=O)(=O)CC(=O)Nc2nc(C(C)(C)C)cs2)cc1,x,n,x,x,40µM,n
CCCc1nnc(NC(=O)CS(=O)(=O)c2ccc(C)cc2)s1,x,n,x,x,n,n
CC(C)(C)c1csc(NC(=O)Cc2cccs2)n1,n,n,u,n,50µM,n
COc1ccc(/C=C(\NC(=O)c2ccc([N+](=O)[O-])cc2)C(=O)NCCCN2CCOCC2)cc1,x,n,x,x,n,n
CCOC(=O)C1CCCN(C(=O)Cn2ncc3c(C)n(Cc4ccccc4F)c(C)c3c2=O)C1 (stereo not drawn),x,n,x,x,n,x
O=C(Cn1cc(C(=O)c2cccs2)c2ccccc21)Nc1ccc(Br)cc1,x,n,x,x,n,x
COc1cccc([C@@H]2Oc3ccc(OC)cc3C(=O)[C@H]2OC(=O)Nc2ccc(OC(F)F)cc2)c1,n,x,x,n,x,n
COc1cccc(C(=O)CN(C(=O)c2ccc(Cl)cc2Cl)N2C(=O)c3ccccc3C2=O)c1,n,n,n,16µM,n,n
COc1cccc(C(=O)CN(C(=O)c2ccc(Cl)c(Cl)c2)N2C(=O)c3ccccc3C2=O)c1,n,n,n,14µM,n,n
SMILES,KDM4E inh,miR-21 reporter,LMNA splice mod,ALDH1A1 block,G9a inh,Sfp PPTase inh
COc1cccc(C(=O)COC(=O)C(C)N2C(=O)c3ccccc3C2=O)c1 (stereo not drawn),n,n,n,n,n,n
OCc1cn(-c2ccccc2)nc1-c1ccco1,u,n,n,u,u,u
Nc1nc(-c2ccco2)c(-c2ccco2)s1,n,n,n,u,u,16µM
Nc1nc(-c2cccs2)c(-c2cccs2)s1,x,n,x,x,u,n
COc1ccc2nc(-c3ccco3)c(-c3ccco3)nc2c1,u,n,n,u,u,7.1µM
c1coc(-c2nc(-c3ccco3)c(-c3ccco3)nc2-c2ccco2)c1,u,n,u,u,11µM,35µM
O=S(=O)(/N=S1/CC=CCN1S(=O)(=O)c1ccccc1)c1ccccc1 (stereo not drawn),28µM,n,n,2µM,u,1.4µM
O=S(=O)(c1ccccc1)N1CCN(S(=O)(=O)c2ccccc2)C1,n,n,n,n,n,n
COc1ccc(-c2onc(C)c2C)cc1S(=O)(=O)NCc1ccc(C)o1,x,n,x,x,n,x
CC[C@H](C)[C@H](NC(=O)CNC(=O)[C@H](CCCNC(=N)N)NC(=O)[C@H](CO)NC(=O)[C@H](C)NC(=O)[C@H](Cc1ccc(O)cc1)NC(=O)[C@H](Cc1c[nH]c2ccccc12)NC(=O)[C@H](C)NC(=O)[C@@H]1CCCN1C(=O)[C@H](CC(N)=O)NC(=O)[C@@H](NC(=O)[C@H](CC(=O)O)NC(=O)[C@@H]1CCCN1C(=O)[C@@H](NC(=O)[C@H](CCCNC(=N)N)NC(=O)[C@@H](NC(=O)[C@H](CCC(=O)O)NC(=O)[C@H](CCSC)NC(=O)[C@H](CO)NC(=O)[C@H](Cc1cnc[nH]1)NC(=O)[C@H](CCCNC(=N)N)NC(=O)[C@H](Cc1cnc[nH]1)NC(=O)[C@@H](NC(=O)[C@H](CCCNC(=N)N)NC(=O)[C@@H](N)CO)[C@@H](C)O)[C@@H](C)CC)[C@@H](C)O)[C@@H](C)CC)C(=O)N[C@@H](CCCNC(=N)N)C(=O)N1CCC[C@H]1C(=O)N[C@H](C(=O)NCC(=O)N[C@@H](CCCNC(=N)N)C(=O)N[C@@H](Cc1ccccc1)C(N)=O)C(C)C,x,x,x,x,x,n
COc1ccc(N2CCN(C(CNC(=O)c3ccco3)c3ccco3)CC2)cc1 (stereo not drawn),x,x,x,x,28µM,x
COc1ccc(N2CCN(C(CNC(=O)c3c(F)cccc3F)c3ccc4c(c3)OCO4)CC2)cc1 (stereo not drawn),x,n,n,x,10µM,x
COc1ccc(N2CCN(C(CNC(=O)c3cccs3)c3ccco3)CC2)cc1 (stereo not drawn),x,x,x,x,45µM,x
COc1ccc(N2CCN(C(CNC(=O)c3ccco3)c3cccnc3)CC2)cc1 (stereo not drawn),n,n,u,n,n[2.33 µM],n
COC(=O)c1cc2sc(Cl)cc2n1CC(=O)Nc1cc(C)cc(C)c1,x,n,x,x,n,x
COc1cccc(-n2nnc3c(=O)n(Cc4ccc(Br)cc4)cnc32)c1,n,n,n,n,n,35µM
COc1cccc(-n2nnc3c(=O)n(Cc4ccc(C)cc4)cnc32)c1,n,n,n,n,n,n
CN1CC(C(=O)O)Cc2c1ccc1ccccc21 (stereo not drawn),u,n,x,u,20µM,u
COc1ccc(S(=O)(=O)N(CC(=O)Nc2cccc(C)c2)c2ccc(C)cc2)cc1OC,x,n,n,x,n,x
Cc1ccc(N(CC(=O)Nc2cccc(C)c2)S(=O)(=O)c2cccc3nonc23)cc1,n,n,u,7.1µM,u,n
CC1(C2(O)CC(c3ccccc3)ON2)CCCCC1 (stereo not drawn),n,n,n,n,40µM,n

# Screening data from PubChem.
